Measured values reported in ChEMBL document CHEMBL4321789, “Hydroxyl Groups in Synthetic and Natural-Product-Derived Therapeutics: A Perspective on a Common Functional Group” (J Med Chem, 2019).

Target: Type-1 angiotensin II receptor (Homo sapiens, UniProt P30556)
Assay: Inhibition of ATR1 (unknown origin)

IC50: 2 nM
SMILES: CCCCc1nc(Cl)c(C(=O)O)n1Cc1ccc(-c2ccccc2-c2nn[nH]n2)cc1 [CARBOXYLIC ACID METABOLITE]
